From ChEMBL document CHEMBL5385852, “Structural optimization and biological evaluation of 1-adamantylcarbonyl-4-phenylpiperazine derivatives as FXR agonists for NAFLD” (Eur J Med Chem, 2023)
Activity calls are given as the source filed them. No cut-off for these calls is given here.

Target: T1, G-protein coupled bile acid receptor 1 (Homo sapiens) (UniProt Q8TDU6)
T1 sequence (whole entry): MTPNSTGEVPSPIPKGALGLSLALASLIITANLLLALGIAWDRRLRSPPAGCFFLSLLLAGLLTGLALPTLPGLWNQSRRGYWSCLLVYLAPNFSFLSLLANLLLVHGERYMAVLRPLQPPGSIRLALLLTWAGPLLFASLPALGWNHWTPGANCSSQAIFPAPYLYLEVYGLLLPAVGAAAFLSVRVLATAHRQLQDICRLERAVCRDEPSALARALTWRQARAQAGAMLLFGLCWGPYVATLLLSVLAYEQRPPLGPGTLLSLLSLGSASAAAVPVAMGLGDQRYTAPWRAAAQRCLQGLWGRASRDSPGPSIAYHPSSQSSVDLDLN
Assay: Agonist activity at TGR5 (unknown origin) by HTRF cAMP dynamic 2 assay
Type: functional

Activity: inactive
Compound: Nc1ccc(Cl)cc1N1CCN(C(=O)C23CC4CC(CC(C4)C2)C3)CC1
